The values below come from patent EP4768477A1 (Yichang Humanwell Pharmaceutical Co., Ltd., priority 2024, dated 2025).

The target in test [1] is hNOPr (Homo sapiens, UniProt P41146). As to the kind of experiment: Radioligand binding affinity test, [3H]-Nociceptin displacement on receptor cell membranes. The settings on record: for Selectivity hKOR/hNOPr: ratio of Ki values hKOR/hNOPr; for Selectivity hMOR/hNOPr: ratio of Ki values hMOR/hNOPr; for Ki: read-out: Ki (nM) of Affinity of opioid receptor hNOPr, 3H-Nociceptin 0.5 nM, cell membranes containing human NOPr.

Test [2] deals with hMOR (Homo sapiens, UniProt P35372). Description: Agonistic function, cAMP method, 293-MOR cells. To be noted: for hMOR Emax (%): forskolin; for EC50: read-out: hMOR EC50, forskolin.

As to `CS(=O)(=O)Cn1c(=O)n(C2CCN(C3CCC4(CC3)CC4)CC2)c2cc(F)c(F)cc21`, in test [1], the Selectivity hKOR/hNOPr is 88.6, the Selectivity hMOR/hNOPr was determined as 87.6 and the Ki is 2.55 nM. Further, in test [2], the “hMOR Emax (%)” value stood at 101.00% and the EC50 was 920 nM.
Regarding `CC1(C)CCC(N2CCC(n3c(=O)n(CC(=O)NC4CC4)c4cc(F)c(F)cc43)CC2)CC1`, in test [1], the Selectivity hKOR/hNOPr was found to be 9.98, the Selectivity hMOR/hNOPr worked out at 2.57 and the Ki stood at 36.6 nM.
Take `CN(C)C(=O)Cn1c(=S)n(C2CCN(C3CCC(C)(C)CC3)CC2)c2cc(F)c(F)cc21`: in test [1], the Selectivity hKOR/hNOPr stood at 2.47, the Selectivity hMOR/hNOPr worked out at 19.7 and the Ki was 3.81 nM.
`CC1(C)CCC(N2CCC(n3c(=O)n(CC(=O)NCC4CC4)c4cc(F)c(F)cc43)CC2)CC1`: in test [1], the Selectivity hKOR/hNOPr was 2.13, the Selectivity hMOR/hNOPr is 2.41 and the Ki was 73.9 nM.
On to `CC1(C)CCC(N2CCC(n3c(=O)n(CC(N)=O)c4cc(F)c(F)cc43)CC2)CC1`, for which, in test [1], the Selectivity hKOR/hNOPr came to 21.7, the Selectivity hMOR/hNOPr is 14.5 and the inhibition constant Ki is 20 nM.
Consider `CCNC(=O)Cn1c(=O)n(C2CCN(C3CCC(C)(C)CC3)CC2)c2cc(F)c(F)cc21`, for which, in test [1], the Selectivity hKOR/hNOPr was found to be 6.86, the Selectivity hMOR/hNOPr was determined as 3.31 and the Ki stood at 32.7 nM. Moreover, in test [2], the “hMOR Emax (%)” value came out at 77.24% and the EC50 was found to be 437 nM.
For the compound `CNC(=O)Cn1c(=S)n(C2CCN(C3CCC(C)(C)CC3)CC2)c2cc(F)c(F)cc21`, in test [1], the Selectivity hKOR/hNOPr was 4.35, the Selectivity hMOR/hNOPr was 10.3 and the Ki is 6.77 nM.
With `CC1(C)CCC(N2CCC(n3c(=O)n(CCS(N)(=O)=O)c4cc(F)c(F)cc43)CC2)CC1`, in test [2], the “hMOR Emax (%)” value is reported as 101.0% and the EC50 stood at 159 nM.
Regarding `Cc1noc(Cn2c(=O)n(C3CCN(C4CCC(C)(C)CC4)CC3)c3cc(F)c(F)cc32)n1`, in test [1], the Selectivity hKOR/hNOPr came to 15.1, the Selectivity hMOR/hNOPr came to 1.95 and the Ki was 72.6 nM.
On to `CNC(=O)Cn1c(=O)n(C2CCN(C3CCC(F)(F)CC3)CC2)c2cc(F)c(F)cc21`, for which, in test [1], the Selectivity hMOR/hNOPr was found to be 14.6 and the Ki turned out to be 182 nM.
On to `CNC(=O)Cn1c(=O)n(C2CCN(C3CCC(C)(C)CC3)CC2)c2cc(Cl)c(F)cc21`, for which, in test [2], the “hMOR Emax (%)” value turned out to be 118.7% and the EC50 worked out at 691 nM.
As to `CCNC(=O)Cn1c(=O)n(C2CCN(C3CCC(F)(F)CC3)CC2)c2cc(F)c(F)cc21`, in test [1], the Selectivity hMOR/hNOPr is 1.81 and the Ki was found to be 1450 nM.
`CC(C)[C@H]1CC[C@@H](N2CCC(n3c(=O)n(CC(=O)N(C)C)c4cc(F)c(F)cc43)CC2)CC1` (relative stereo): in test [1], the Selectivity hKOR/hNOPr is 280, the Selectivity hMOR/hNOPr was 20.9 and the Ki turned out to be 4.89 nM. For the same compound, in test [2], the “hMOR Emax (%)” value worked out at 75.80% and the EC50 amounted to 540 nM.
On to `CS(=O)(=O)Cn1c(=O)n(C2CCN(C3CCC4(CCC4)CC3)CC2)c2cc(F)c(F)cc21`, for which, in test [2], the “hMOR Emax (%)” value was 92.2% and the EC50 was 258 nM.
As for `CNC(=O)C(C)n1c(=O)n(C2CCN(C3CCC(C)(C)CC3)CC2)c2cc(F)c(F)cc21` (centres unmarked), in test [1], the Selectivity hKOR/hNOPr turned out to be 15.1, the Selectivity hMOR/hNOPr turned out to be 6.88 and the Ki was 32.6 nM.
Turning to `CNC(=O)Cn1c(=O)n(C2CCN([C@H]3CC[C@@H](C(C)C)CC3)CC2)c2cc(F)c(F)cc21` (relative stereo), in test [1], the Selectivity hKOR/hNOPr worked out at 3820, the Selectivity hMOR/hNOPr came out at 185 and the Ki came out at 0.3 nM. For the same compound, in test [2], the “hMOR Emax (%)” value is on record as 80.52% and the EC50 was found to be 452 nM.
Taken in the same sequence, the figures for `CNC(=O)Cn1c(=O)n(C2CCN(C3CCC(C)(C)CC3)CC2)c2cc(F)c(F)cc21` were 136, 28.1, 5.97 nM, 86.94% and 1140 nM.
With `CN(C)C(=O)Cn1c(=O)n(C2CCN(C3CCC(C)(C)CC3)CC2)c2cc(F)c(F)cc21`, in test [1], the Selectivity hMOR/hNOPr came out at 1.4 and the Ki amounted to 269 nM.
For `CCOC(=O)Cn1c(=O)n(C2CCN(C3CCC(C)(C)CC3)CC2)c2cc(F)c(F)cc21`, in test [1], the Selectivity hKOR/hNOPr came to 10.5, the Selectivity hMOR/hNOPr worked out at 1.18 and the Ki turned out to be 56.5 nM.
Regarding `CC(=O)NCCn1c(=O)n(C2CCN(C3CCC(C)(C)CC3)CC2)c2cc(F)c(F)cc21`, in test [1], the Selectivity hKOR/hNOPr was 15.4, the Selectivity hMOR/hNOPr was determined as 2.82 and the Ki worked out at 64 nM.
For the compound `CC1(C)CCC(N2CCC(n3c(=O)n(CS(C)(=O)=O)c4cc(F)c(F)cc43)CC2)CC1`, in test [1], the Selectivity hKOR/hNOPr came out at 22.4, the Selectivity hMOR/hNOPr came out at 11.8 and the Ki came to 13.7 nM. Further, in test [2], the “hMOR Emax (%)” value amounted to 87.56% and the EC50 was 711 nM.
On to `CCS(=O)(=O)NCCN1Cc2cc(F)c(F)cc2N(C2CCN(C3CCC(C)(C)CC3)CC2)C1=O`, for which the inhibition constant (Ki) in test [1] came to 52.9 nM.
In the case of `CNC(=O)Cn1c(=O)n(C2CCN(C3CCC4(CC3)CC4)CC2)c2cc(F)c(F)cc21`, in test [1], the Selectivity hKOR/hNOPr turned out to be 72.2, the Selectivity hMOR/hNOPr was 49.7 and the inhibitory constant (Ki) was 4.78 nM. Moreover, in test [2], the “hMOR Emax (%)” value came to 89.92% and the EC50 amounted to 1620 nM.
On to `CC1(C)CCC(N2CCC(n3c(=O)n(CC(=O)NCCO)c4cc(F)c(F)cc43)CC2)CC1`, for which, in test [1], the Selectivity hKOR/hNOPr is 1.98, the Selectivity hMOR/hNOPr amounted to 1.64 and the Ki worked out at 104 nM.
As to `CC1(C)CCC(N2CCC(n3c(=O)n(CS(C)(=N)=O)c4cc(F)c(F)cc43)CC2)CC1` (centres unmarked), in test [2], the “hMOR Emax (%)” value was 92.2% and the EC50 was 417 nM.
